According to ChEMBL document CHEMBL1144935, “Synthesis, biological evaluation, and receptor docking simulations of 2-[(acylamino)ethyl]-1,4-benzodiazepines as kappa-opioid receptor agonists endowed with antinociceptive and antiamnesic activity” (J Med Chem, 2003):
pKi: −log10 of the molar value.

Biological target: Delta-type opioid receptor (Homo sapiens, UniProt P41143)

CN1c2ccc(Cl)cc2C(c2ccccc2)=NCC1CCNC(=O)c1cccs1 (stereo unspecified)
pKi: 6.31
